Literature values as cited in patent US20250152650A1, “COMPOSITIONS FOR TREATING SEA LICE IN SALMON AND RELATED METHODS” (KEMIN INDUSTRIES, INC., priority 2023, published 2025).

System: sensitive copepodid lice
Conditions: in salmon tissues (in vivo) and 24 hr bioassay baths (in vitro); cited from earlier work

Substance: emamectin benzoate [EMB, reference compound]
- concentrations that appear to be lethal to sensitive copepodid lice: 1-10 ppb
